Where two headings read alike, the source gives them in different places.

Data set [1] concerns rats. An excerpt:
Rats were sacrificed under anesthesia with ether. After observation of gross appearance of all the organs, extraction and weighing were made on spleen, lung, liver, adrenal, heart, thymus, kidney, testicles, hypophysis and thyroid. In addition to the above organs, femoral bone marrow, lymph node, stomach, intestine, pancreas, urinary bladder, prostate and central nervous system were removed and fixed in 10% formaline solution.

For data set [2], the system named is rats. This is another data set of the same source.
Data set [3] deals with rats. Particulars: rat, in vivo.
Data set [4] deals with rats. The class given is in vivo, rat (SD (SPF)). Particulars: oral sub-acute. The procedure: All the rats were observed daily and general symptoms noted. Weight was measured daily, average food-intake once every three days, and average water-intake once every two days.
The subject of the next data set is blood pressure of SHR. In words: Antihypertensive effect by single administration, SHR, direct cannulation. The class given is in vivo, rat (spontaneously hypertensive rats. Particulars: from DB20. The procedure:
The effect was examined through both direct and modified tail-cuff methods using male SHRs aged 25 to 30 weeks and weighing about 300 g.
In the direct cannulation method, polyethylene cannules were inserted in femoral arteries of the conscious unanesthesized SHRs under back-fixation,and MR solution was administered in an amount of 0.1 mg/100 g of weight for venous injection, and 1 ml/100 g of weight for oral administration. Changes in the blood pressure over 6 hours were measured with a multi-purpose polygraph RM-85 made by NIHON KODEN Co., Ltd. MR was dissolved in 0.9% NaCl aqueous solution with 1 N-HCl, and the solution was neutralized for use.

For data set [5] the following is noted: 20 mg/kg oral, MR = 1.

Turning to `COC(=O)[C@H]1[C@H]2C[C@@H]3c4[nH]c5cc(OC)ccc5c4CCN3C[C@H]2C[C@@H](O)[C@@H]1OC` [MR, methylreserpate], the “Absolute weight Testis” value in the data set on rats [1] (50.0 mg/kg) was 1.68 ± 0.03 g. In the data set with rats [1] (100.0 mg/kg), the “Absolute weight Heart” value was found to be 1.16 ± 0.04 g and the “Absolute weight Testis” value stood at 1.51 ± 0.09 g. In addition, in the data set on rats [1] (rat, in vivo), the “Absolute weight Adrenal” value turned out to be 24.95±1.42, the “Absolute weight Heart” value came to 1.15±0.04 and the “Absolute weight Testis” value is reported as 1.63±0.05. Further, in the data set with rats [2] (50.0 mg/kg, day 30), the R.B.C. was 901±15.1 x10^4 /mm^3 and the W.B.C is recorded as 153±12.5 ×10^2 /mm^3. The R.B.C. with rats [2] (100.0 mg/kg, day 30) was 915±15.1 x10^4 /mm^3. In the data set on rats [2] (100 and 200 mg/kg groups), the red cell count result is reported as “increase in red cell count” and the white cell count result is “decrease in white cell count”. Also, the hematology entry in the data set on rats [2] (groups other than 100 and 200 mg/kg) is on record as “no significant change”. Besides, in the data set with rats [2] (rat, in vivo), the R.B.C. is given as 770±15.1 x10^4 /mm^3. Moreover, in the data set with rats [3], the GPT is 32.0±1.16.
In the data set on rats [4], `COC(=O)[C@H]1[C@H]2C[C@@H]3c4[nH]c5cc(OC)ccc5c4CCN3C[C@H]2C[C@@H](OC(=O)/C=C/c2cc(OC)c(OC)c(OC)c2)[C@@H]1OC` [RCN, Rescinnamin] came in with a lethal dose of 36 mg/kg. Besides, the “Rate of Effects (relative to MR)” value with blood pressure of SHR (I.V.) is 2.70; with blood pressure of SHR (P.O.), 1.22. Also, in data set [5], the “Bioavailability Ratio (area under the curve)” value stood at 0.32.

The record behind these values is patent publication US4238491A (priority 1977, dated 1980).
